Test system: breast tumor (13762) and turpentine oil-induced inflammation
Test: Tumor and inflammation uptake comparison, micro-PET
Details: tumor- and inflammation-bearing rats; for inflammation-to-muscle (I/M) ratio / tumor-to-inflammation (T/I) ratio / tumor-to-muscle (T/M) ratio: 500 μCi/rat i.v.

^18F-2-deoxy-2-fluoro-glucose
inflammation-to-muscle (I/M) ratio (30 min): 3.43 | tumor-to-inflammation (T/I) ratio (30 min): 1.71 | tumor-to-muscle (T/M) ratio (30 min): 5.88 | inflammation-to-muscle (I/M) ratio (60 min): 3.77 | tumor-to-inflammation (T/I) ratio (60 min): 1.99 | tumor-to-muscle (T/M) ratio (60 min): 7.54 | inflammation-to-muscle (I/M) ratio (90 min): 2.72 | tumor-to-inflammation (T/I) ratio (90 min): 1.8 | tumor-to-muscle (T/M) ratio (90 min): 4.9 | tumor-to-inflammation (T/I) ratios (all time points): greater than 1

— PMC3303751, “Development of Tyrosine-Based Radiotracer ^99mTc-N4-Tyrosine for Breast Cancer Imaging” (Journal of Biomedicine and Biotechnology, 2012)
